Paper PMC7064328, “Evaluation of Maternal, Embryo, and Placental Effects in CD-1 Mice following Gestational Exposure to Perfluorooctanoic Acid (PFOA) or Hexafluoropropylene Oxide Dimer Acid (HFPO-DA or GenX)” (Environmental Health Perspectives, 2020)

Tested on: Pregnant CD-1 mice
Assay: Maternal indices: dam body weight, gestational weight gain, liver and kidney weight after daily oral gavage E1.5 to E11.5 or E17.5
Format: in vivo, mouse (CD-1)
Settings: for Relative GWG, E11.5 estimate (95% CI) / Relative GWG, E17.5 Estimate (95% CI) / Relative GWG, E11.5 Estimate (95% CI) relative to VC: adjusted for litter size
Procedure: Naïve female CD-1 mice between 7.5 and 15.5 wk of age from the NIEHS colony were bred in-house on a single night, and copulatory plug–positive females were identified on embryonic day (E) 0.5. Pregnant dams were singly housed in ventilated polypropylene cages and received nesting materials, National Institutes of Health (NIH)-31 diet (Zeigler Bros., Inc.) and reverse osmosis deionized (RODI) water ad libitum. Animals were housed in humidity- and temperature-controlled rooms with 25°C and 45–60% average humidity and standard 12-h light cycles. All animal procedures were approved by the NIEHS Animal Care and Use Committee (ASP #2017-0022).
PFOA ammonium salt (CAS #3825-26-1) was purchased from Millipore Sigma, and GenX [ammonium 2,3,3,3-tetrafluoro-2-(heptafluoropropoxy)propanoate; CAS# 62,037-80-3] was purchased from SynQuest Laboratories. PFOA and GenX dosing solutions were prepared in RODI water and administered to mice once daily via oral gavage. Daily doses were administered between 0700 and 0800 hours and adjusted to the BW of the mouse based on the previous day’s weight at a volume of 0.01mL/g BW. […] The dose of 1mg/kg BW/d PFOA, used in the mouse developmental toxicity study of [Lau et al. 2006], provided a lowest effect dose that was used to set the reference dose within the U.S. EPA’s drinking water lifetime health advisory level (HAL) of 70 ppt PFOA ([U.S. EPA 2016]). Given that the state of North Carolina has a provisional health goal of 140 ppt GenX (double the PFOA HAL), we selected doses of GenX ( 10mg/kg BW/d , high dose; 2mg/kg BW/d , low dose) to mirror doses of PFOA previously used in HAL decision-making.
This experiment was conducted over two blocks (Block 1 and Block 2) to achieve a total of n=11–13 litters per treatment group and sacrifice time point (E11.5 and E17.5). The experimental design of the second block was identical to the first block of the study, and experimental methods were similar but expanded upon to include more rigorous and detailed measurements. Copulatory plug–positive mice (E0.5) were weighed to obtain a baseline BW and placed into one of five groups. Once all mice were assigned to groups, mean BWs were calculated, and a few animals were reassigned so that mean BWs in each group were similar. This was done to avoid confounding effects of baseline BW. Treatment groups were then randomly assigned a color by using a random sequence generator. Experimenters and dosing technicians were blinded to the treatment group to which the color groups corresponded throughout the duration of the study, including at necropsy. Randomly assigned treatment groups included in each block: vehicle control (deionized water only), 1mg/kg BW/d PFOA, 5mg/kg BW/d PFOA, 2mg/kg BW/d GenX, and 10mg/kg BW/d GenX. Pregnant dams were dosed via oral gavage from E1.5 to E11.5 or from E1.5 to E17.5. The sacrifice time points were selected a priori to examine effects of gestational PFOA or GenX exposure on embryo and placental growth prior to placental maturation (E11.5) as well as after full placental maturation (E17.5) ([Watson and Cross 2005]). The E11.5 early-gestation time point was selected because it overlaps a critical period of placental development in the mouse where the placenta undergoes vascularization with the uterine wall and chorioallantoic branching of vessels begins ([Watson and Cross 2005]). The E17.5 late-gestation time point was selected so that embryo weight changes that may be related to treatment would be evident.
On the day of necropsy, dams received daily oral gavage between 0700 and 0800 hours and were weighed and then euthanized humanely by swift decapitation, and serum was collected. In Block 1, necropsies were completed from 0800 to 1600 hours, and in Block 2, necropsies were completed from 0800 to 1200 hours. Serum from dams euthanized in Block 1 was snap frozen for internal dosimetry analyses. Serum and urine from Block 2 dams were reserved for clinical chemistry analyses. […]

N.O=C(O)C(F)(OC(F)(F)C(F)(F)C(F)(F)F)C(F)(F)F (centres unmarked) [GenX, ammonium 2,3,3,3-tetrafluoro-2-(heptafluoropropoxy)propanoate]
Relative kidney weight (E11.5, 2 mg/kg/d): 0.54±0.04 % BW
Relative liver weight (E11.5, 2 mg/kg/d): 8.1±0.5 % BW
Greater BW gain (GWG) relative to vehicle controls (E11.5, 10 mg/kg/d): 7.4%
Relative kidney weight (E11.5, 10 mg/kg/d): 0.52±0.11 % BW
Relative liver weight (E11.5, 10 mg/kg/d): 10.2±0.7 % BW
Relative kidney weight (E17.5, 2 mg/kg/d): 0.37±0.02 % BW
Relative liver weight (E17.5, 2 mg/kg/d): 6.3±1.0 % BW
Relative kidney weight (E17.5, 10 mg/kg/d): 0.43±0.03 % BW
Relative liver weight (E17.5, 10 mg/kg/d): 8.1±0.5 % BW
Relative GWG, E11.5 estimate (95% CI) (2 mg/kg/d): 20.8 (4.7, 36.9) % gain from embryonic day 0.5
Relative GWG, E17.5 Estimate (95% CI) (2 mg/kg/d): 48.7 (10.3, 87.1) % gain from embryonic day 0.5
Relative GWG, E11.5 estimate (95% CI) (10 mg/kg/d): 24.4 (8.1, 40.6) % gain from embryonic day 0.5
Relative GWG, E17.5 Estimate (95% CI) (10 mg/kg/d): 55.3 (16.7, 93.7) % gain from embryonic day 0.5
Relative GWG, E11.5 Estimate (95% CI) relative to VC (fourth column (after E17.5 estimate), 2 mg/kg/d): 12.5 ( -0.5, 25.6) % gain from embryonic day 0.5
Relative GWG, E11.5 Estimate (95% CI) relative to VC (fourth column (after E17.5 estimate), 10 mg/kg/d, 10 mg/kg/day): 19.1 (5.9, 32.2) % gain from embryonic day 0.5 and 19.1 % gain from embryonic day 0.5
Relative GWG, E11.5 Estimate (95% CI) relative to VC (second column, 2 mg/kg/d): 3.5 (-2.5, 9.5) % gain from embryonic day 0.5
Relative GWG, E11.5 Estimate (95% CI) relative to VC (second column, 10 mg/kg/d, 10 mg/kg/day): 7.1 (0.9, 13.2) % gain from embryonic day 0.5 and 7.1 % gain from embryonic day 0.5

“And” between values parts separate entries of the source, which are not always exact repeats. Equal entries are not always repeated.
